A word on the IC50: it is the concentration needed to halve the response being measured. Higher therefore signals weaker potency.

The chains behind the UniProt entries cited, without tags or fusion partners. Where a name states a change or a piece, a line headed by the entry shows the natural chain unless it says otherwise.
UniProt P43490: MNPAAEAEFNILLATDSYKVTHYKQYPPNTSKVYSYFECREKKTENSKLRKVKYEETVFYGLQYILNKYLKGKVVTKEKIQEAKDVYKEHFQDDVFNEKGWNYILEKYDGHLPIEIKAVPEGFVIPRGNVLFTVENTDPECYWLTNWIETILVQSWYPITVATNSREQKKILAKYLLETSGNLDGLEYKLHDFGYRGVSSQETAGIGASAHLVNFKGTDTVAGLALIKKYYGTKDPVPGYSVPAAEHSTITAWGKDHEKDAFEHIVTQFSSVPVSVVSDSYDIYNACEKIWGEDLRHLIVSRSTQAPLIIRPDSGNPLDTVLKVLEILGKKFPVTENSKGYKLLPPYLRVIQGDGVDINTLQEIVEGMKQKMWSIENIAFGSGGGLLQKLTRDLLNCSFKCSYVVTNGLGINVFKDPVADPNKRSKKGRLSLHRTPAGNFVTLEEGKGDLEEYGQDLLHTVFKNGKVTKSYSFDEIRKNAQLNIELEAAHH

This assay has as its target NAMPT (Homo sapiens (Human), UniProt P43490). The assay can be described thus: Biochemical inhibition assay (NAMPT enzymatic reaction, NMN quantified by mass spectrometry).
On to `O=C(NCC1CC12CCN(C(=O)C(F)(F)c1ccccc1)CC2)N1Cc2ccncc2C1` (stereo not shown) [Example 230, N-[[6-(2,2-difluoro-2-phenyl-acetyl)-6-azaspiro[2.5]octan-2-yl]methyl]-1,3-dihydropyrrolo[3,4-c]pyridine-2-carboxamide], for which half-maximal inhibition (IC50) was put at 18.5 nM.
In the case of `Cc1cccnc1C(=O)N1CCC2(CC1)CC2CNC(=O)c1cc2ccncc2o1` (stereo not shown) [Example 231, N-[[6-(3-methylpyridine-2-carbonyl)-6-azaspiro[2.5]octan-2-yl]methyl]furo[2,3-c]pyridine-2-carboxamide] it was 201 nM; in that of `Cc1cnccc1C(=O)N1CCC2(CC1)CC2CNC(=O)c1cc2ccncc2o1` (stereo not shown) [Example 232, N-[[6-(3-methylpyridine-4-carbonyl)-6-azaspiro[2.5]octan-2-yl]methyl]furo[2,3-c]pyridine-2-carboxamide], 98.3 nM; in that of `Cc1ccc(C(=O)N2CCC3(CC2)CC3CNC(=O)c2cc3ccncc3o2)cn1` (stereo not shown) [Example 233, N-[[6-(6-methylpyridine-3-carbonyl)-6-azaspiro[2.5]octan-2-yl]methyl]furo[2,3-c]pyridine-2-carboxamide], 45.8 nM.
In the case of `Cc1ccnc(C(=O)N2CCC3(CC2)CC3CNC(=O)c2cc3ccncc3o2)c1` (stereo not shown) [Example 235, N-[[6-(4-methylpyridine-2-carbonyl)-6-azaspiro[2.5]octan-2-yl]methyl]furo[2,3-c]pyridine-2-carboxamide] it was 288 nM; in that of `O=C(NCC1CC12CCN(C(=O)c1cccc3[nH]cnc13)CC2)c1cc2ccncc2o1` (stereo not shown) [Example 236, N-[[6-(1H-benzimidazole-4-carbonyl)-6-azaspiro[2.5]octan-2-yl]methyl]furo[2,3-c]pyridine-2-carboxamide], 33.9 nM.
The same measure for `O=C(NCC1CC12CCN(C(=O)c1cc3cccn3cn1)CC2)c1cc2ccncc2o1` (stereo not shown) [Example 237, N-[[6-(pyrrolo[1,2-c]pyrimidine-3-carbonyl)-6-azaspiro[2.5]octan-2-yl]methyl]furo[2,3-c]pyridine-2-carboxamide]: 50.1 nM; for `O=C(NCC1CC12CCN(C(=O)c1ccc3[nH]nnc3c1)CC2)c1cc2ccncc2o1` (stereo not shown) [Example 238, N-[[6-(1H-benzotriazole-5-carbonyl)-6-azaspiro[2.5]octan-2-yl]methyl]furo[2,3-c]pyridine-2-carboxamide]: 31.7 nM.
Turning to `O=C(NCC1CC12CCN(C(=O)c1ccnc3[nH]ccc13)CC2)c1cc2ccncc2o1` (stereo not shown) [Example 239, N-[[6-(1H-pyrrolo[2,3-b]pyridine-4-carbonyl)-6-azaspiro[2.5]octan-2-yl]methyl]furo[2,3-c]pyridine-2-carboxamide], the IC50 was found to be 32.9 nM.
The same measure for `O=C(NCC1CC12CCN(C(=O)c1cccc3[nH]ncc13)CC2)c1cc2ccncc2o1` (stereo not shown) [Example 240, N-[[6-(1H-indazole-4-carbonyl)-6-azaspiro[2.5]octan-2-yl]methyl]furo[2,3-c]pyridine-2-carboxamide]: 26.3 nM; for `O=C(NCC1CC12CCN(C(=O)c1ccc3[nH]cnc3c1)CC2)c1cc2ccncc2o1` (stereo not shown) [Example 241, N-[[6-(1H-benzimidazole-5-carbonyl)-6-azaspiro[2.5]octan-2-yl]methyl]furo[2,3-c]pyridine-2-carboxamide]: 27.3 nM.
In the case of `N#Cc1ccc(C(=O)N2CCC3(CC2)CC3CNC(=O)c2cc3ccncc3o2)cc1` (stereo not shown) [Example 242, N-[[6-(4-cyanobenzoyl)-6-azaspiro[2.5]octan-2-yl]methyl]furo[2,3-c]pyridine-2-carboxamide] it was 134 nM; in that of `N#Cc1cccc(C(=O)N2CCC3(CC2)CC3CNC(=O)c2cc3ccncc3o2)c1` (stereo not shown) [Example 243, N-[[6-(3-cyanobenzoyl)-6-azaspiro[2.5]octan-2-yl]methyl]furo[2,3-c]pyridine-2-carboxamide], 73.6 nM.
The same measure for `O=C(NCC1CC12CCN(C(=O)c1ccc(CN3CCOCC3)cc1)CC2)c1cc2ccncc2o1` (stereo not shown) [Example 245, N-[[6-[4-(morpholinomcthyl)benzoyl]-6-azaspiro[2.5]octan-2-yl]methyl]furo[2,3-c]pyridine-2-carboxamide]: 52.5 nM; for `Cc1nccn1Cc1ccc(C(=O)N2CCC3(CC2)CC3CNC(=O)c2cc3ccncc3o2)cc1` (stereo not shown) [Example 246, N-[[6-[4-[(2-methylimidazol-1-yl)methyl]benzoyl]-6-azaspiro[2.5]octan-2-yl]methyl]furo[2,3-c]pyridine-2-carboxamide]: 21.1 nM; for `O=C(NCC1CC12CCN(C(=O)c1ccc(OC(F)(F)F)cc1)CC2)c1cc2ccncc2o1` (stereo not shown) [Example 247, N-[[6-[4-(trifluoromethoxy)benzoyl]-6-azaspiro[2.5]octan-2-yl]methyl]furo[2,3-c]pyridine-2-carboxamide]: 205 nM.
`O=C(NCC1CC12CCN(C(=O)c1ccc(CN3CCCC3)cc1)CC2)c1cc2ccncc2o1` (stereo not shown) [Example 248, N-[[6-[4-(pyrrolidin-1-ylmethyl)benzoyl]-6-azaspiro[2.5]octan-2-yl]methyl]furo[2,3-c]pyridine-2-carboxamide] returned an IC50 of 22.1 nM. Against the preceding compound, the IC50 is about 9.3-fold lower.
The same measure for `O=C(NCC1CC12CCN(C(=O)c1cccc(Cn3cncn3)c1)CC2)c1cc2ccncc2o1` (stereo not shown) [Example 249, N-[[6-[3-(1,2,4-triazol-1-ylmethyl)benzoyl]-6-azaspiro[2.5]octan-2-yl]methyl]furo[2,3-c]pyridine-2-carboxamide]: 254 nM; for `O=C(NCC1CC12CCN(C(=O)c1ccccc1Cn1cncn1)CC2)c1cc2ccncc2o1` (stereo not shown) [Example 250, N-[[6-[2-(1,2,4-triazol-1-ylmethyl)benzoyl]-6-azaspiro[2.5]octan-2-yl]methyl]furo[2,3-c]pyridine-2-carboxamide]: 549 nM.
`O=C(NCC1CC12CCN(C(=O)c1ccc(Cn3cncn3)cc1)CC2)c1cc2ccncc2o1` (stereo not shown) [Example 251, N-[[6-[4-(1,2,4-triazol-1-ylmethyl)benzoyl]-6-azaspiro[2.5]octan-2-yl]methyl]furo[2,3-c]pyridine-2-carboxamide] registered a 50% inhibitory concentration (IC50) of 77.6 nM.
`O=C(NCC1CC12CCN(C(=O)c1cccc(Cn3ccnc3)c1)CC2)c1cc2ccncc2o1` (stereo not shown) [Example 252, N-[[6-[3-(imidazol-1-ylmethyl)benzoyl]-6-azaspiro[2.5]octan-2-yl]methyl]furo[2,3-c]pyridine-2-carboxamide] yielded an IC50 of 69.5 nM.
In the case of `O=C(NCC1CC12CCN(C(=O)c1ccc(-n3ccnc3)cc1)CC2)c1cc2ccncc2o1` (stereo not shown) [Example 253, N-[[6-(4-imidazol-1-ylbenzoy)-6-azaspiro[2.5]octan-2-yl]methyl]furo[2,3-c]pyridine-2-carboxamide] it was 41.7 nM; in that of `O=C(NCC1CC12CCN(C(=O)c1ccc(-c3ncn[nH]3)cc1)CC2)c1cc2ccncc2o1` (stereo not shown) [Example 254, N-[[6-(4-(1H-1,2,4-triazol-5-yl)benzoyl]-6-azaspiro[2.5]octan-2-yl]methyl]furo[2,3-c]pyridine-2-carboxamide], 19.1 nM.
The compound `O=C(NCC1CC12CCN(C(=O)c1ccc(-n3ccnc3)nc1)CC2)c1cc2ccncc2o1` (stereo not shown) [Example 255, N-[[6-(6-imidazol-1-ylpyridine-3-carbonyl)-6-azaspiro[2.5]octan-2-yl]methyl]furo[2,3-c]pyndine-2-carboxamide] came in with an IC50 of 49.9 nM.
The same measure for `O=C(NCC1CC12CCN(C(=O)c1cc(C(F)(F)F)ccn1)CC2)c1cc2ccncc2o1` (stereo not shown) [Example 256, N-[[6-[4-(trifluoromethyl]pyridine-2-carbonyl]6-azaspiro[2.5]octan-2-yl]methyl]furo[2,3-c]pyridine-2-carboxamide]: 147 nM.
Regarding `O=C(NCC1CC12CCN(C(=O)c1ccc(C(F)(F)F)nc1)CC2)c1cc2ccncc2o1` (stereo not shown) [Example 257, N-[[6-[6-(trifluoromethyl]pyndine-3-carbonyl]-6-azaspiro[2.5]octan-2-yl]methyl]furo[2,3-c]pyridine-2-carboxamide], 313 nM corresponded to half-maximal inhibition (IC50).
In turn, `O=C1COc2ccc(C(=O)N3CCC4(CC3)CC4CNC(=O)c3cc4ccncc4o3)cc2N1` (stereo not shown) [Example 258, N-[[6-(3-oxo-4H-1,4-benzoxazine-6-carbonyl)-6-azaspiro[2.5]octan-2-yl]methyl]furo[2,3-c]pyridine-2-carboxamide] gave an IC50 of 31.4 nM.
In the case of `NS(=O)(=O)c1ccc(C(=O)N2CCC3(CC2)CC3CNC(=O)c2cc3ccncc3o2)cc1` (stereo not shown) [Example 259, N-[[6-(4-sulfamoylbenzoyl)-6-azaspiro[2.5]octan-2-yl]methyl]furo[2,3-c]pyridine-2-carboxamide] it was 161 nM; in that of `O=C(NCC1CC12CCN(C(=O)c1ccccc1Cn1ccnc1)CC2)c1cc2ccncc2o1` (stereo not shown) [Example 260, N-[[6-(2-(imidazol-1-ylmethyl)benzoyl]-6-azaspito[2.5]octan-2-yl]methyl]furo[2,3-c]pyridine-2-carboxamide], 916 nM.
`O=C(NCC1CC12CCN(C(=O)c1ccc3nccnc3c1)CC2)c1cc2ccncc2o1` (stereo not shown) [Example 261, N-[[6-(quinoxaline-6-carbonyl)-6-azaspiro[2.5]octan-2-yl]methyl]furo[2,3-c]pyridine-2-carboxamide] came in with a 50% inhibitory concentration (IC50) of 24.5 nM.
In the case of `O=C(NCC1CC12CCN(C(=O)c1ccc3cnccc3n1)CC2)c1cc2ccncc2o1` (stereo not shown) [Example 262, N-[[6-(1,6-naphthyridine-2-carbonyl)-6-azaspiro[2.5]octan-2-yl]methyl]furo[2,3-c]pyridine-2-carboxamide] it was 69.5 nM; in that of `CC(=O)Nc1cccc(C(=O)N2CCC3(CC2)CC3CNC(=O)c2cc3ccncc3o2)c1` (stereo not shown) [Example 264, N-[[6-(3-acetamidobenzoyl)-6-azaspiro[2.5]octan-2-yl]methyl]furo[2,3-c]pyridine-2-carboxamide], 68.3 nM; in that of `CC(=O)Nc1cnccc1C(=O)N1CCC2(CC1)CC2CNC(=O)c1cc2ccncc2o1` (stereo not shown) [Example 265, N-[[6-(3-acetamidopyridine-4-carbonyl)-6-azaspiro[2.5]octan-2-yl]methyl]furo[2,3-c]pyridine-2-carboxamide], 2230 nM.
In the case of `O=C(NCC1CC12CCN(C(=O)c1ccc3nonc3c1)CC2)c1cc2ccncc2o1` (stereo not shown) [Example 266, N-[[6-(2,1,3-benzoxadiazole-5-carbonyl)-6-azaspiro[2.5]octan-2-yl]methyl]furo[2,3-c]pyridine-2-carboxamide] it was 127 nM.

These data come from patent US10730889B2, “Amido spirocyclic amide and sulfonamide derivatives” (Forma TM, LLC, priority 2012, dated 2020).
